From patent US6432662B1, “Assay of peroxidase activity” (Pierce Chemical Company, priority 1999, dated 2002)

Molecular target: T1, Biotinylated horseradish peroxidase (B-HRP) (Armoracia rusticana, UniProt P00433)
T1 sequence (P00433 31-338): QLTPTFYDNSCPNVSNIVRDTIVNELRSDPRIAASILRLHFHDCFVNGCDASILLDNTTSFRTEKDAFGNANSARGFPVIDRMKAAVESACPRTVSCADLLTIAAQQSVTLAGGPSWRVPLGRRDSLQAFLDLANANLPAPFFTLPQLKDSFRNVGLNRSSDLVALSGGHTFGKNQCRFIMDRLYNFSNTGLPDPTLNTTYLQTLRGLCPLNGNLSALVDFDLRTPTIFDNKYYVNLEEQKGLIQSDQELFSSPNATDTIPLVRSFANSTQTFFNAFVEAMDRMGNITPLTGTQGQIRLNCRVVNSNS
Experiment: Microtiter plate luminometer assay of peroxidase activity (RLU)
Conditions: after 5 minutes, enhancer: 1c […] (present invention) or 52 μM (low), 1b 52 μM, 3 13.5 μM

Phenylindophenol/indophenol [Phenolic Enhancer 3]
Relative Intensity 5 pg SA-HRP: 0 | Relative Intensity 25 pg SA-HRP: 0 | Relative Intensity 250 pg B-HRP: 0.328
